Patent US20200024315A1, “ANTIMICROBIAL PEPTIDES AND METHODS OF TREATING GRAM-NEGATIVE PATHOGENS” (THE REGENTS OF THE UNIVERSITY OF COLORADO, a body corporate, priority 2017, published 2020)

Legend:
[1] = Circular dichroism (CD) spectroscopy, characterization of helical structure; assay type: physicochemical; settings: for α-helical content (% helix) in aqueous conditions: aqueous benign buffer pH 7.0, 5° C.; for inducible helical structure Δ[Θ]222 nm TFE-Aqueous: difference 50% TFE minus aqueous buffer
human erythrocytes = assay: Hemolytic activity against human erythrocytes; assay type: cell-based; settings: for hemolytic activity HC50: 1% human erythrocytes, 18 h, 37° C.
Procedure: Peptide samples (concentrations determined by amino acid analysis) were added to 1% human erythrocytes in phosphate-buffered saline (100 mM NaCl, 80 mM Na2HPO4, 20 mM NaH2PO4, pH 7.4) and the reaction mixtures were incubated at 37° C. for 18 h in microtiter plates. Two-fold serial dilutions of the peptide samples were carried out. This determination was made by withdrawing aliquots from the hemolysis assays and removing unlysed erythrocytes by centrifugation (800×g). Hemoglobin release was determined spectrophotometrically at 570 nm. The control for 100% hemolysis was a sample of erythrocytes treated with water. The control for no release of hemoglobin was a sample of 1% erythrocytes without any peptide added. Since erythrocytes were in an isotonic medium, no detectable release (<1% of that released upon complete hemolysis) of hemoglobin was observed from this control during the assay. The hemolytic activity is generally determined as the peptide concentration that causes 50% hemolysis of erythrocytes after 18 h (HC50). HC50 was determined from a plot of percent lysis versus peptide concentration (microM). If 50% hemolysis could not be reached, the inventors used HC30 values (30% hemolysis).

Substance	α-helical content (% helix) in aqueous conditions [1]	inducible helical structure Δ[Θ]222 nm TFE-Aqueous [1]	hemolytic activity HC50 (human erythrocytes)	hemolytic activity (in words) (human erythrocytes; human erythrocytes)
Ac-ALKKLLSTLSSA(Dbu)SS(Dbu)LSTLLKALKK-amide [D57]	5.9%	574	–	–
Ac-ALDbuDbuLLSTLSSAKSSKLSTLLDbuALDbuDbu-amide [D60]	3.3%	881	> 1880 µM	not hemolytic
Ac-ALArgArgLLSTLSSAKSSKLSTLLArgALArgArg-amide [D61]	10.6%	835	3.4 µM	–
